Like-named read-outs stand apart in the source and are kept apart here.
Target: T1, mesotrypsin (Homo sapiens, UniProt P35030)
T1 construct: made in house; host or cells: E. coli
T1 sequence (P35030 81-304 limits assumed): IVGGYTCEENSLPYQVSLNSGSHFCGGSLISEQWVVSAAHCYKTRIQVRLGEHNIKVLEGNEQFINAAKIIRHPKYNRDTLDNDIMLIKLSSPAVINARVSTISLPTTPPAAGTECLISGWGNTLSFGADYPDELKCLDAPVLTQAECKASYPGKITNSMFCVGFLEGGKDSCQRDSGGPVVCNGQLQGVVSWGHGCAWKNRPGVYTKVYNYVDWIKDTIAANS
Assay: Competitive inhibition of mesotrypsin (cleavage of chromogenic substrate Z-GPR-pNA)
Type: biochemical

With `CC[C@H](C)[C@H](NC(=O)[C@H](C)NC(=O)[C@H](CO)NC(=O)CNC(=O)[C@@H]1CSSC[C@H](NC(=O)[C@@H](NC(=O)[C@@H](N)CCC(=O)O)C(C)C)C(=O)N[C@@H](CO)C(=O)N[C@@H](CCC(=O)O)C(=O)N[C@@H](CCC(N)=O)C(=O)N[C@@H](C)C(=O)N[C@@H](CCC(=O)O)C(=O)N[C@@H]([C@@H](C)O)C(=O)NCC(=O)N2CCC[C@H]2C(=O)N[C@H]2CSSC[C@@H]3NC(=O)CNC(=O)CNC(=O)[C@H](Cc4ccc(O)cc4)NC(=O)[C@H](Cc4ccccc4)NC(=O)[C@H](Cc4ccccc4)NC(=O)[C@@H]4CCCN4C(=O)[C@H](C)NC(=O)[C@H](CSSC[C@H](NC(=O)[C@H](Cc4ccc(O)cc4)NC(=O)[C@H](CCC(=O)O)NC(=O)[C@H](CCC(=O)O)NC(=O)[C@H]([C@@H](C)O)NC(=O)[C@H](CC(=O)O)NC(=O)CNC(=O)[C@H](CC(N)=O)NC(=O)[C@H](CC(N)=O)NC(=O)[C@H](CCCNC(=N)N)NC(=O)[C@H](CC(N)=O)NC(=O)CNC(=O)CNC3=O)C(=O)N[C@@H](CCSC)C(=O)N[C@@H](C)C(=O)N[C@@H](C(C)C)C(=O)N1)NC(=O)[C@H](CCCCN)NC(=O)CNC(=O)[C@H](CCC(=O)O)NC(=O)[C@H]([C@@H](C)O)NC(=O)[C@H](C(C)C)NC(=O)[C@H](CC(=O)O)NC(=O)[C@H](Cc1ccccc1)NC(=O)[C@H](Cc1ccc(O)cc1)NC(=O)[C@H](Cc1c[nH]c3ccccc13)NC(=O)[C@H](CCCNC(=N)N)NC(=O)[C@H](CO)NC(=O)[C@H]([C@@H](C)CC)NC(=O)[C@H](Cc1ccccc1)NC(=O)[C@H](C)NC(=O)[C@H](CCCNC(=N)N)NC2=O)C(=O)O` [APPI-M17F] the Ki (Ki ± SD (M)) was 1.26e-07 M.

`CC[C@H](C)[C@H](NC(=O)[C@H](C)NC(=O)[C@H](CO)NC(=O)CNC(=O)[C@@H]1CSSC[C@H](NC(=O)[C@@H](NC(=O)[C@@H](N)CCC(=O)O)C(C)C)C(=O)N[C@@H](CO)C(=O)N[C@@H](CCC(=O)O)C(=O)N[C@@H](CCC(N)=O)C(=O)N[C@@H](C)C(=O)N[C@@H](CCC(=O)O)C(=O)N[C@@H]([C@@H](C)O)C(=O)NCC(=O)N2CCC[C@H]2C(=O)N[C@H]2CSSC[C@@H]3NC(=O)CNC(=O)CNC(=O)[C@H](Cc4ccc(O)cc4)NC(=O)[C@H](Cc4ccccc4)NC(=O)[C@H](Cc4ccccc4)NC(=O)[C@@H]4CCCN4C(=O)[C@H](C)NC(=O)[C@H](CSSC[C@H](NC(=O)[C@H](Cc4ccc(O)cc4)NC(=O)[C@H](CCC(=O)O)NC(=O)[C@H](CCC(=O)O)NC(=O)[C@H]([C@@H](C)O)NC(=O)[C@H](CC(=O)O)NC(=O)CNC(=O)[C@H](CC(N)=O)NC(=O)[C@H](CC(N)=O)NC(=O)[C@H](CCCNC(=N)N)NC(=O)[C@H](CC(N)=O)NC(=O)CNC(=O)CNC3=O)C(=O)N[C@@H](CCSC)C(=O)N[C@@H](C)C(=O)N[C@@H](C(C)C)C(=O)N1)NC(=O)[C@H](CCCCN)NC(=O)CNC(=O)[C@H](CCC(=O)O)NC(=O)[C@H]([C@@H](C)O)NC(=O)[C@H](C(C)C)NC(=O)[C@H](CC(=O)O)NC(=O)[C@H](Cc1ccccc1)NC(=O)[C@H](Cc1ccc(O)cc1)NC(=O)[C@H](Cc1c[nH]c3ccccc13)NC(=O)[C@H](CCCNC(=N)N)NC(=O)[C@H](CO)NC(=O)[C@H]([C@@H](C)CC)NC(=O)[C@H](CCCNC(=N)N)NC(=O)[C@H](C)NC(=O)[C@H](CCCCN)NC2=O)C(=O)O` [APPI-R15K/M17R] showed a Ki of 1.53e-06 M.

With `CC[C@H](C)[C@H](NC(=O)[C@H](C)NC(=O)[C@H](CO)NC(=O)CNC(=O)[C@@H]1CSSC[C@H](NC(=O)[C@@H](NC(=O)[C@@H](N)CCC(=O)O)C(C)C)C(=O)N[C@@H](CO)C(=O)N[C@@H](CCC(=O)O)C(=O)N[C@@H](CCC(N)=O)C(=O)N[C@@H](C)C(=O)N[C@@H](CCC(=O)O)C(=O)N[C@@H]([C@@H](C)O)C(=O)NCC(=O)N2CCC[C@H]2C(=O)N[C@H]2CSSC[C@@H]3NC(=O)CNC(=O)CNC(=O)[C@H](Cc4ccc(O)cc4)NC(=O)[C@H](Cc4ccccc4)NC(=O)[C@H](Cc4ccccc4)NC(=O)[C@@H]4CCCN4C(=O)[C@H](C)NC(=O)[C@H](CSSC[C@H](NC(=O)[C@H](Cc4ccc(O)cc4)NC(=O)[C@H](CCC(=O)O)NC(=O)[C@H](CCC(=O)O)NC(=O)[C@H]([C@@H](C)O)NC(=O)[C@H](CC(=O)O)NC(=O)CNC(=O)[C@H](CC(N)=O)NC(=O)[C@H](CC(N)=O)NC(=O)[C@H](CCCNC(=N)N)NC(=O)[C@H](CC(N)=O)NC(=O)CNC(=O)CNC3=O)C(=O)N[C@@H](CCSC)C(=O)N[C@@H](C)C(=O)N[C@@H](C(C)C)C(=O)N1)NC(=O)[C@H](CCCCN)NC(=O)CNC(=O)[C@H](CCC(=O)O)NC(=O)[C@H]([C@@H](C)O)NC(=O)[C@H](C(C)C)NC(=O)[C@H](CC(=O)O)NC(=O)[C@H](Cc1ccccc1)NC(=O)[C@H](Cc1ccc(O)cc1)NC(=O)[C@H](Cc1c[nH]c3ccccc13)NC(=O)[C@H](CCCNC(=N)N)NC(=O)[C@H](CO)NC(=O)[C@H]([C@@H](C)CC)NC(=O)CNC(=O)[C@H](C)NC(=O)[C@H](CCCNC(=N)N)NC2=O)C(=O)O` [APPI-M17G] the Ki (Ki toward mesotrypsin) was 4.7e-09 M and the Ki (Ki ± SD (M)) was 4.71e-09 M.

With `CC[C@H](C)[C@H](NC(=O)[C@H](C)NC(=O)[C@H](CO)NC(=O)CNC(=O)[C@@H]1CSSC[C@H](NC(=O)[C@@H](NC(=O)[C@@H](N)CCC(=O)O)C(C)C)C(=O)N[C@@H](CO)C(=O)N[C@@H](CCC(=O)O)C(=O)N[C@@H](CCC(N)=O)C(=O)N[C@@H](C)C(=O)N[C@@H](CCC(=O)O)C(=O)N[C@@H]([C@@H](C)O)C(=O)NCC(=O)N2CCC[C@H]2C(=O)N[C@H]2CSSC[C@@H]3NC(=O)CNC(=O)CNC(=O)[C@H](Cc4ccc(O)cc4)NC(=O)[C@H](Cc4ccccc4)NC(=O)[C@H](Cc4ccccc4)NC(=O)[C@@H]4CCCN4C(=O)[C@H](C)NC(=O)[C@H](CSSC[C@H](NC(=O)[C@H](Cc4ccc(O)cc4)NC(=O)[C@H](CCC(=O)O)NC(=O)[C@H](CCC(=O)O)NC(=O)[C@H]([C@@H](C)O)NC(=O)[C@H](CC(=O)O)NC(=O)CNC(=O)[C@H](CC(N)=O)NC(=O)[C@H](CC(N)=O)NC(=O)[C@H](CCCNC(=N)N)NC(=O)[C@H](CC(N)=O)NC(=O)CNC(=O)CNC3=O)C(=O)N[C@@H](CCSC)C(=O)N[C@@H](C)C(=O)N[C@@H](C(C)C)C(=O)N1)NC(=O)[C@H](CCCCN)NC(=O)CNC(=O)[C@H](CCC(=O)O)NC(=O)[C@H]([C@@H](C)O)NC(=O)[C@H](C(C)C)NC(=O)[C@H](CC(=O)O)NC(=O)[C@H](Cc1ccccc1)NC(=O)[C@H](Cc1ccc(O)cc1)NC(=O)[C@H](Cc1c[nH]c3ccccc13)NC(=O)[C@H](CCCNC(=N)N)NC(=O)[C@H](CO)NC(=O)[C@H]([C@@H](C)CC)NC(=O)[C@H](CCCNC(=N)N)NC(=O)[C@H](C)NC(=O)[C@H](CCCNC(=N)N)NC2=O)C(=O)O` [APPI-M17R] the Ki (Ki (M)) was 9.2e-07 M.
